Experiments:
[1] = biological target: T1, homoisocitrate dehydrogenase (HIcDH) (Saccharomyces cerevisiae, UniProt P40495); test: HIcDH initial velocity studies; format: biochemical; conditions: in the absence of K+
[2] = biological target: T1, homoisocitrate dehydrogenase (HIcDH); conditions: as slow substrate, in the presence of K+; cited from earlier work

The chains behind the UniProt entries cited, without tags or fusion partners. Residues count along the entry.
UniProt P40495, 23-371: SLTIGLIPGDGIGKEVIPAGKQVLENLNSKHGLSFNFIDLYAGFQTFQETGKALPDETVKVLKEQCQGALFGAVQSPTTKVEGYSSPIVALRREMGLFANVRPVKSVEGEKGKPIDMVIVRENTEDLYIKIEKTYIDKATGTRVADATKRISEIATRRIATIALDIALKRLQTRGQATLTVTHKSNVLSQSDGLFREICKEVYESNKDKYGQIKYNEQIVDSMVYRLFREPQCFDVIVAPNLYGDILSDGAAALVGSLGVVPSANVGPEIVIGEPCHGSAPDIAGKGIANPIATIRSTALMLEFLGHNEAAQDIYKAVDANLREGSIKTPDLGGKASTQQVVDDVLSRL

O=C(O)CC(C(=O)O)C(O)C(=O)O (centres unmarked) [isocitrate]
reaction rate as reactant [1]: not detectable
rate, fold lower than the rate with HIc [2]: 200 fold

Source: publication PMC2760454 (Biochemistry, 2008)
